Results as given in patent US10919895B2, “Toll-like receptor 7 (TLR7) agonists having a pyridine or pyrazine moiety, conjugates thereof, and methods and uses therefor” (BRISTOL-MYERS SQUIBB COMPANY, priority 2017, dated 2021).

The chains behind the UniProt entries cited, without tags or fusion partners. Residues count along the entry.
UniProt Q9NYK1, 27-1049 limits assumed: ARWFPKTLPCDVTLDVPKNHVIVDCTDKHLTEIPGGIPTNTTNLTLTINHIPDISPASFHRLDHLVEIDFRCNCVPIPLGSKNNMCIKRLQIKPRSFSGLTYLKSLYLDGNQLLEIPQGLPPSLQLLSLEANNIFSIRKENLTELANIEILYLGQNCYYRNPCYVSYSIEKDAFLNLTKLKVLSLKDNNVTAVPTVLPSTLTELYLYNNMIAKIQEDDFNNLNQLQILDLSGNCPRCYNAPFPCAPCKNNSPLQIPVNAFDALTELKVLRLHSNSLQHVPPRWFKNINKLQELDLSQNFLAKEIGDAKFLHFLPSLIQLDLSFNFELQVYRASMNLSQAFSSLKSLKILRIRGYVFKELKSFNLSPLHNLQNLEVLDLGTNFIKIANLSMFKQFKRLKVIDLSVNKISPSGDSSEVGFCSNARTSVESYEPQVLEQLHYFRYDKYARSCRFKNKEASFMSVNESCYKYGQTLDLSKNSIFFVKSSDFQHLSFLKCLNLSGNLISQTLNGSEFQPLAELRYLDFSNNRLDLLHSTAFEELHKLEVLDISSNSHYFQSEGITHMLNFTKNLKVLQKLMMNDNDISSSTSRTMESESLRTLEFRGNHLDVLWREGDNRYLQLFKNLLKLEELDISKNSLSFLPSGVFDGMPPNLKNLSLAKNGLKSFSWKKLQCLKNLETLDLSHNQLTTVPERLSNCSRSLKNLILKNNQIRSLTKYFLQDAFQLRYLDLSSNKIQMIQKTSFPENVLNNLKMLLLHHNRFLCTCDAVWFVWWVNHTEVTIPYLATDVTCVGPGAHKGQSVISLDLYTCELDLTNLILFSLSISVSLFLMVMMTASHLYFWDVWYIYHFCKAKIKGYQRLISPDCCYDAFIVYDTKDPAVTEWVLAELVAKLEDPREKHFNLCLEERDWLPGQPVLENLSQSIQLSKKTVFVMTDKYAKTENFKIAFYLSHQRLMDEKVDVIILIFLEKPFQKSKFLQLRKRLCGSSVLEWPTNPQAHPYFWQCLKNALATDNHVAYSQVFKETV

What was measured:
human TLR7 = human TLR7 (Homo sapiens (Human), UniProt Q9NYK1); experiment: HEK-Blue TLR7 reporter assay for TLR7 agonist activity; type: cell-based; conditions: read-out: TLR7 Agonism (EC50); HEK-Blue TLR7 cells, SEAP reporter, 18 h treatment
interleukin 6 (IL-6) = experiment: IL-6 induction in human whole blood (AlphaLISA); conditions: read-out: IL-6 Induction (EC50), 37° C., 20 h

Row | SMILES | EC50 (human TLR7) [µM] | EC50 (interleukin 6 (IL-6)) [µM]
1 | CCCCOc1nc(N)c2nc(O)n(Cc3ccc(CNC4CCC4)nc3)c2n1 | 0.0036 | 0.022
2 | CCCCOc1nc(N)c2nc(O)n(Cc3cnc(CNCCO)cn3)c2n1 | 0.77 | 
